Results taken from patent publication US20160279204A1, “PEPTIDES AND PHARMACEUTICAL COMPOSITIONS FOR USE IN THE TREATMENT BY NASAL ADMINISTRATION OF PATIENTS SUFFERING FROM ANXIETY AND SLEEP DISORDERS” (MAX-PLANCK-GESELLSCHAFT ZUR FÖRDERUNG DER WISSENSCHAFT E.V., priority 2011, published 2016).

System: NPS target cells in the murine brain
Assay: Intracerebral distribution of fluorophore-labelled NPS after ICV injection
Conditions: 30 min
Description: The mice were sacrificed 30 min post-injection.
Immunohistochemistry was performed on free-floating cryosections (40 μm).

rhodamine [pure rhodamine]
intracerebral distribution pattern (specificity): dispersed homogenously in the intercellular space throughout the entire brain
